# Results published in patent US9416347B2, “Method of treating bacterial contamination in a microalgae culture with pH shock” (Heliae Development LLC, priority 2014, dated 2016).
# System: bacteria in Chlorella sp. culture
# Details: pH lowered from about 7.5 to 3.5 for 15 minutes
compound,measurement,setting,value
"CC(=O)O [Acetic acid, acetic acid]",Bacteria to Algae Ratio (Guava Flow Cytometry),0 h,0.19 ± 0.02
same,Bacteria to Algae Ratio (Guava Flow Cytometry),72 h,0.18 ± 0.01

# Read-outs that look alike come from different tables or passages of the source.
